A selection: hits, their analogues and other compounds. The true share with any hit is near 2.8%.
esBAF inh = SWI/SNF esBAF complex inhibition. mouse ES cells, Bmi1-luciferase knock-in reporter, 24 h; 100% = twice the neutral-well signal. reporter increase, % at 12.5 µM. 2% of 350,000 active. AID 602393; in the data active = activation above about 40%; inconclusive = no clear call, values can overlap the other calls;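 also: 0% = median of the plate's neutral control wells and 100% = double that signal; a rise in the Bmi1 reporter signal indicates esBAF inhibition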
PglD DTNB = inhibitors of Campylobacter jejuni PglD acetyltransferase | purified PglD enzyme, DTNB colorimetric CoA detection | inhibition, % at 12.5 µM | 0.098% of 360,000 active | AID 602405; in the data active = inhibition above about 16%, passing the limit was not always enough; inconclusive = no clear call, values can overlap the other calls
E-selectin induc = induces E-selectin expression in human endothelial cells; HUVEC E-selectin immunofluorescence imaging; normalized: neutral wells 0, TNF-alpha wells 100; activation, % at 7.58 µM; 0.37% of 260,000 active; AID 686992;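 active = mean E-selectin-positive cell signal at least 10% of the positive control, reached in at least 60% of replicates, without over 20% cell loss; inconclusive = no rule given, readout overlaps actives, possibly toxicity-flagged; inactive = the rest, including those meeting only one limit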
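material = human umbilical vein endothelial cells (HUVEC), E-selectin induction | quantity = 3,000 cells/well | medium = EGM-2 growth medium on 0.1% gelatin-coated wells | technique = immunofluorescence imaging | read-out basis = % PE-positive cells | control set = TNF-alpha positive control, DMSO neutral control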
PGC1a acetyl inh = modulators of PGC1a acetylation. U2OS PGC1a acetylation, AlphaScreen anti-acetyl-lysine; with virally co-expressed GCN5 acetyltransferase. inhibition, % at 15.6 µM. 0.17% of 350,000 active. AID 651687;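 active = every replicate shows inhibition of at least 40%; inconclusive = mean inhibition at least 40% but some replicate below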;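 also: 0% = neutral control wells and 100% = positive control wells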
Statin myotox sup = protects C2C12 myotubes from simvastatin toxicity. ATP luminescence, 48 h; scaled: DMSO 0, geranylgeraniol control 100. rescue of ATP level, % at 7.49 µM. 0.78% of 330,000 active;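 active = mean ATP rescue above about 67%, or every replicate alone reaching that limit, limit read from the data, passing the limit was not always enough; inconclusive = no clear call, values can overlap the other calls; inactive = mean under the limit and some replicate under it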;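 also: myotubes were challenged with 10 µM simvastatin during compound exposure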
UUG fidelity = modulators of start codon recognition fidelity in yeast; S. cerevisiae UUG-firefly luciferase reporter, luminescence/redox ratio; AID 602363; 350,000 tested, 0.13% active; activity score, % at 18.7 µM;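 active = replicate mean at a twofold rise or more, about +100% in these data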;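 also: firefly luciferase made from a UUG start codon reports start codon fidelity; reporter light over untreated wells divided by growth signal over untreated wells; some hits fall short of that in this replicate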
Starred values were filed as active, the others as inactive; ? = inconclusive; · = no result.

| nr | Compound | PglD DTNB | PGC1a acetyl inh | E-selectin induc |
| --- | --- | --- | --- | --- |
| 1 | Cc1ccc(S(=O)(=O)Nc2ccc3c(c2)CC(=O)N([C@H](C)CO)C[C@H](C)[C@@H](CN(C)Cc2ccc4c(c2)OCO4)O3)cc1 | -2 | -13 | 0 |
| 2 | C[C@@H]1CN([C@@H](C)CO)C(=O)Cc2cc(NC(=O)CCC(F)(F)F)ccc2O[C@@H]1CN(C)Cc1ccc(C(=O)O)cc1 | 14 | 2 | · |
| 3 | C[C@H](CO)N1C[C@H](C)[C@H](CN(C)S(=O)(=O)c2cccs2)OCCCC[C@H](C)Oc2ccc(NC(=O)Nc3ccc(F)cc3)cc2C1=O | -9 | 6 | 0 |
| 4 | C[C@@H]1CCCCO[C@@H](CN(C)S(=O)(=O)c2cccs2)[C@H](C)CN([C@@H](C)CO)C(=O)c2cc(NC(=O)Nc3ccc(F)cc3)ccc2O1 | -6 | 1 | 0 |
| 5 | C[C@H](CO)N1C[C@H](C)[C@H](CN(C)S(=O)(=O)c2ccc(Cl)cc2)Oc2ccc(NC(=O)NC3CCCCC3)cc2C1=O | 3 | -10 | 436* |
| 6 | C[C@H]1CN([C@@H](C)CO)C(=O)c2cc(NC(=O)Nc3ccc(C(F)(F)F)cc3)ccc2O[C@@H]1CN(C)S(=O)(=O)c1ccccc1 | · | 11 | 133* |
| 7 | C[C@H](CO)N1C[C@H](C)[C@@H](CN(C)S(=O)(=O)c2cccs2)Oc2ccc(NC(=O)CCN3CCOCC3)cc2C1=O | 4 | 5 | 63* |
| 8 | C[C@H]1CN([C@@H](C)CO)C(=O)c2cc(NC(=O)CCN3CCOCC3)ccc2O[C@H]1CN(C)S(=O)(=O)c1cccs1 | 5 | -10 | 1 |
| 9 | C[C@@H]1CN([C@H](C)CO)C(=O)c2cc(NC(=O)Nc3ccc(F)cc3)ccc2O[C@@H]1CN(C)S(=O)(=O)c1cccs1 | -2 | -3 | -2 |
| 10 | C[C@@H]1CN([C@H](C)CO)C(=O)c2cc(NC(=O)Nc3ccc4c(c3)OCO4)ccc2O[C@H]1CN(C)S(=O)(=O)c1ccc(F)cc1 | 2 | -2 | 51* |
| 11 | C[C@@H]1CN([C@H](C)CO)C(=O)c2cc(NC(=O)Nc3ccc(F)cc3)ccc2O[C@H]1CN(C)S(=O)(=O)c1cccs1 | -2 | 0 | 39* |
| 12 | C[C@H]1CN([C@@H](C)CO)C(=O)c2cc(C#CC3CCCCC3)cnc2O[C@H]1CN(C)Cc1cccnc1 | 1 | 2 | 0 |
| 13 | CCSc1nc(N)c2c(C)c(C)sc2n1 | · | · | -2 |
| 14 | C=CCSc1nc(N)c2c(C)c(C)sc2n1 | -2 | -1 | -1 |
| 15 | ONC=Nc1cccc2nonc12 | 5 | 3 | · |

| nr | esBAF inh | Statin myotox sup | UUG fidelity |
| --- | --- | --- | --- |
| 1 | 12 | 76* | -2 |
| 2 | 4 | -5 | -18 |
| 3 | 4 | ? | -11 |
| 4 | 3 | 84* | 1 |
| 5 | 4 | -89 | 6 |
| 6 | -4 | -3 | · |
| 7 | -1 | -12 | -6 |
| 8 | 3 | -18 | -10 |
| 9 | -1 | -40 | · |
| 10 | -3 | -11 | -18 |
| 11 | -1 | 13 | -2 |
| 12 | -5 | 7 | 1 |
| 13 | · | · | · |
| 14 | 46* | 4 | -20 |
| 15 | 0 | 146* | -17 |

Three consecutive records out of the list so far, for reference:
| nr | Compound | PglD DTNB | PGC1a acetyl inh | E-selectin induc |
| --- | --- | --- | --- | --- |
| 13 | CCSc1nc(N)c2c(C)c(C)sc2n1 | · | · | -2 |
| 14 | C=CCSc1nc(N)c2c(C)c(C)sc2n1 | -2 | -1 | -1 |
| 15 | ONC=Nc1cccc2nonc12 | 5 | 3 | · |

| nr | esBAF inh | Statin myotox sup | UUG fidelity |
| --- | --- | --- | --- |
| 13 | · | · | · |
| 14 | 46* | 4 | -20 |
| 15 | 0 | 146* | -17 |

(next part)
| nr | Compound | PglD DTNB | PGC1a acetyl inh | E-selectin induc |
| --- | --- | --- | --- | --- |
| 16 | COc1ccc2c3c([nH]c2c1)[C@H](CO)N(C(=O)C1CCOCC1)CC31CCN(C(=O)NC(C)C)CC1 | · | · | 0 |
| 17 | CCCC/C=C1\CCc2c([nH]c3ccccc23)C1=O | 1 | -1 | 1 |
| 18 | CCCCN1CCc2c([nH]c3ccccc23)C1=O | -1 | 7 | · |
| 19 | C[C@@H](NC(=O)C[C@H]1C=C[C@H](NS(=O)(=O)c2cccc(F)c2)[C@@H](CO)O1)c1ccccc1 | -6 | 4 | 0 |
| 20 | CCOC(=O)c1[nH]nc(C(=O)c2ccc(Br)cc2)c1O | -4 | -5 | · |
| 21 | CCOC(=O)c1ccc(CNCc2ccc(Br)cc2)cc1 | -2 | 4 | · |
| 22 | CC(C)(C)c1[nH]nc2c1C(c1ccncc1)C(C#N)=C(N)O2 (configuration not stated) | 0 | 6 | · |
| 23 | CC(C)(C)c1[nH]nc2c1C(c1ccoc1)C(C#N)=C(N)O2 (configuration not stated) | -3 | 12 | · |
| 24 | O=C(Nc1ccccc1F)N[C@@H]1CC[C@@H](CCNS(=O)(=O)c2ccc(Cl)cc2)O[C@H]1CO | 6 | -17 | 0 |
| 25 | COc1cccc(NC(=O)N[C@@H]2C=C[C@@H](CC(=O)Nc3ccccc3)O[C@@H]2CO)c1 | · | · | 0 |
| 26 | Cc1occc1C(=O)Nc1ccc(Br)cc1F | -3 | 3 | · |

| nr | esBAF inh | Statin myotox sup | UUG fidelity |
| --- | --- | --- | --- |
| 16 | · | · | · |
| 17 | ? | -7 | -9 |
| 18 | 69* | -16 | -7 |
| 19 | 1 | 5 | -7 |
| 20 | 54* | -2 | 2 |
| 21 | 0 | -5 | 0 |
| 22 | 6 | · | -8 |
| 23 | -4 | 92* | -19 |
| 24 | 5 | -23 | -5 |
| 25 | · | · | · |
| 26 | 46* | 0 | -11 |

Source: PubChem BioAssay (Broad Institute)
